Source: patent US8071548B2, “Method of reducing injury to mammalian cells” (Nono, Inc., priority 2002, dated 2011)
Only a part of the results on these compounds is given; other tests are left out.

Tested on: cultured cortical neurons
Assay: NO donor toxicity in cortical cultures

## sodium nitroprusside
300 μM
  vulnerability of stretched versus unstretched cultures to NO donor: increased vulnerability to SNP
Irrespective of PSD-95 deficiency
  NO donor toxicity: highly toxic
read-out: NO donor toxicity EC50, irrespective of PSD-95 deficiency
  EC50: 300 µM
